# Where two headings read alike, the source gives them in different places.
# Amino acid sequences for entries named in this document (tags omitted). Residues count along the entry.
# UniProt P58154, 20-229 limits assumed: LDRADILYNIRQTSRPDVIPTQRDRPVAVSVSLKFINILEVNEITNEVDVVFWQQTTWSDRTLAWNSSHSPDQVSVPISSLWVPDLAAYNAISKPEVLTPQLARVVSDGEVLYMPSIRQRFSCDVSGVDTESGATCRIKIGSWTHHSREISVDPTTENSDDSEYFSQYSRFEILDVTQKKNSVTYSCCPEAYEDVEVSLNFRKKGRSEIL
# What was measured:
# Lymnaea AChBP [1] = target: T1, Lymnaea AChBP (Lymnaea stagnalis, UniProt P58154); assay: biochemical; format: binding
# Lymnaea AChBP [2] = target: T1, Lymnaea AChBP; conditions: read-out: Lymnaea Kd; cited from earlier work
compound,measurement,setting,value
"CN1CCCC1c1cccnc1 (single isomer, unassigned; (-)) [(−)-Nicotine]",Kd,Lymnaea AChBP [1],38 nM
same,Kd,Lymnaea AChBP [2],86 nM

# — patent US7947466B2 (priority 2003, dated 2011)
